Molecular target: T1, Dihydroorotate dehydrogenase (Plasmodium falciparum, UniProt Q54A96)
T1 sequence (Q54A96 whole entry): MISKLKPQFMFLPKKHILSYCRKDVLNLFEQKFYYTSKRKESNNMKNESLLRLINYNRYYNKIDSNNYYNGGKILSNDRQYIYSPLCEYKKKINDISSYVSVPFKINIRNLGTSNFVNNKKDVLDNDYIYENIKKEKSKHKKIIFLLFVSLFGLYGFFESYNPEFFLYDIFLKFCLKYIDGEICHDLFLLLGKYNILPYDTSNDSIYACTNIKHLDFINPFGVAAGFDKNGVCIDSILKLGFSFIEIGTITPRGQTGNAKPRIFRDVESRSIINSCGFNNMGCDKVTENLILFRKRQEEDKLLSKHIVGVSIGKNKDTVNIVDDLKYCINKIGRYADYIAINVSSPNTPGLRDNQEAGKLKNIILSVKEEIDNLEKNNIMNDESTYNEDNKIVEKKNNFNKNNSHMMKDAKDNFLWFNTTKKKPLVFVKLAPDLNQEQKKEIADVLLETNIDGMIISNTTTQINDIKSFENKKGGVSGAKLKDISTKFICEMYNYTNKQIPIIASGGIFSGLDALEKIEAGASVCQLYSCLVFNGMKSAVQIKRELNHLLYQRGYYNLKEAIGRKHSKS
Test: Inhibition of Plasmodium falciparum DHODH (Phe158 to Ser569) expressed in Escherichia coli BL21 using dihydroorotate as substrate measured every 30 secs for 6 mins by DCIP dye-based assay

- IC50: 31 nM
Structure (SMILES): Cc1cc(Nc2ccc3ccccc3c2)n2ncnc2n1

— ChEMBL document CHEMBL2429811, “Novel selective and potent inhibitors of malaria parasite dihydroorotate dehydrogenase: discovery and optimization of dihydrothiophenone derivatives” (J Med Chem, 2013)
